The entries are a selection whose mix differs from that of the whole data set. Some results for these compounds are left out of this collection, so the calls shown say nothing about other tests. Active and inactive are the calls of the source.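 Rule for the calls: active = inhibition above the mean of all tested compounds plus 3 SD, set per campaign (cut at about 25% in these data); inactive = the rest.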
Target: Tyrosyl-DNA phosphodiesterase 2 (Homo sapiens) (UniProt O95551)
Assay: blockers of TDP2 phosphodiesterase activity – biochemical, epi absorbance, recombinant enzyme, primary screen (AID 720702);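 note: 0% = DMSO with enzyme and 100% = buffer with substrate but no TDP2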
Conditions: recombinant TDP2, T5PNP hydrolysis, p-nitrophenol absorbance 415 nm; at 12.8 µM; hits give high values
Summary of the method: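 Test system: Human TDP2 enzyme | Reagent: 5 mM T5PNP | Compound dosing: 12.8 µM single point, 1% DMSO | Incubation: Enzyme reaction with compound for 2 h at 37 °C | Technique: p-Nitrophenol epi absorbance | Read-out: % inhibition relative to enzyme-containing and enzyme-free wells | Benchmarks: High control without enzyme, low control DMSO plus TDP2 | Replicates: Singlicate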

Amino acid sequences for entries named in this document (tags omitted).
UniProt O95551, whole entry: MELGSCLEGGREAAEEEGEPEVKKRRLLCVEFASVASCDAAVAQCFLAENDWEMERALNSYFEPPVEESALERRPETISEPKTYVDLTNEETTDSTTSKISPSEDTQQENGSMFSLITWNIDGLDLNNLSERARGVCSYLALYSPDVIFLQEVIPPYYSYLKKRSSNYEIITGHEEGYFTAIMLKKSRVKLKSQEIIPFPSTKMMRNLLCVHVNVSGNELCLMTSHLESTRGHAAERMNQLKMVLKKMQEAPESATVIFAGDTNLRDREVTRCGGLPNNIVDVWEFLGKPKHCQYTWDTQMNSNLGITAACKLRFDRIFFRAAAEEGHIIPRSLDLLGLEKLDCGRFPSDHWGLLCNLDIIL

Structure (SMILES)	inhibition
CC(C)N1C(=O)CC2(CCN(CCOC(=O)C(O)(c3ccccc3)c3ccccc3)CC2)C1=O	inactive: 7.54%
CCN(CC)CC(C)C(C)OC(=O)C(O)(c1ccccc1)c1ccccc1 (stereo unspecified)	inactive: 3.61%
COc1cc(SC)ccc1C(=O)NCC1(N(C)C)CCCCC1	inactive: 7.67%
Cc1ccc(C(=O)NCC2(N3CCCCC3)CCCCC2)cc1	inactive: 7.95%
O=C(NCC1(N2CCCCC2)CCCCC1)c1cc([N+](=O)[O-])ccc1Cl	inactive: 0.69%
CN1[C@@H]2CC[C@H]1CC(OC(=O)C(O)(c1ccccc1)c1ccccc1)C2 (stereo partly specified)	inactive: 14.8%
C=CCN1CCN(CCOC(=O)C(O)(c2ccccc2)c2ccccc2)CC1	inactive: 4.18%
O=C(NCC1(N2CCCCC2)CCCCC1)c1cc(F)c(F)cc1Cl	inactive: -5.19%
Cc1cc(C(=O)NCC2(N3CCCCC3)CCCCC2)ccc1[N+](=O)[O-]	inactive: 2.23%
CCN1CCCC(OC(=O)C2(O)c3ccccc3C=Cc3ccccc32)C1 (stereo unspecified)	inactive: -5.94%
O=C(NCC1(N2CCCCC2)CCCCC1)c1cccc(Br)c1	inactive: 1.69%
COc1ccc(C(=O)NCC2(N(C)C)CCCCC2)cc1	inactive: -15.9%
Cc1ccccc1C(=O)NCC1(N2CCCCC2)CCCCC1	inactive: 0.96%
CN(C)C1CCCC1OC(=O)C(O)(c1ccccc1)c1ccccc1 (stereo unspecified)	inactive: 7.54%
CN(C)c1ccc(C(=O)NCC2(N(C)C)CCCCC2)cc1	inactive: -7.66%
COc1cccc(C(=O)NCC2(N3CCCCC3)CCCCC2)c1	inactive: 0.39%
COc1ccc(Cl)cc1C(=O)NCC1(N(C)C)CCCCC1	inactive: -15.8%
O=C(NCC1(N2CCCCC2)CCCCC1)c1cccc(Cl)c1	inactive: -1.69%
CN(C)C1(CNC(=O)c2ccc(Br)cc2)CCCCC1	inactive: 16.7%
COc1cc(C(=O)NCC2(N(C)C)CCCCC2)c([N+](=O)[O-])cc1OC	inactive: 7.57%
COc1ccc(Br)c(C(=O)NCC2(N3CCCCC3)CCCCC2)c1	inactive: -3.42%
C=C(C)C#CC(O)(C(=O)OC1CCN(C)CC1)c1ccccc1 (stereo unspecified)	inactive: -6.32%
CN(C)c1cccc(C(=O)NCC2(N(C)C)CCCCC2)c1	inactive: -1.04%
CC(C)Oc1ccc(C(=O)NCC2(N(C)C)CCCCC2)cc1	inactive: -0.36%
O=C(OCCN1CCCC1)C(O)(c1ccccc1)c1ccccc1	inactive: 4.44%
O=C(OC1CN2CCC1CC2)C(CO)(c1ccccc1)c1ccccc1 (stereo unspecified)	inactive: 1.57%

Source: PubChem BioAssay AID720702 (The Scripps Research Institute Molecular Screening Center, 2013)
